From patent publication US20260382581A1, “COMPOSITIONS COMPRISING CYTISINE IN THE TREATMENT AND/OR PREVENTION OF ADDICTION IN SUBJECTS IN NEED THEREOF” (published 2026)

Experiments:
[1] = ORCA-1: treatment emergent adverse events
Procedure: (§1) This was a six-arm, multi-center, double-blind, randomized, placebo-controlled study conducted in male or female adults≥18 years of age, smoking 10+ cigarettes daily, and willing to set a quit date that is 5-7 days after randomization. This study was designed to evaluate the effectiveness of 1.5 mg of cytisine versus placebo using the commercial titration schedule approved in Central and Eastern Europe. The study also evaluated the effectiveness of a simplified TID dosing schedule for 1.5 mg and an increased dose of 3.0 mg (using both the commercial titration (COM) and simplified TID dosing schedules). The overall goal of the study was to obtain estimates of effect size for efficacy and safety endpoints that will be used to inform the design of future Phase 3 studies.
TEAEs were experienced by approximately half the study population in all treatment arms. The TID dosing schedule had slightly fewer TEAEs overall. Across both schedules, the SOCs with the highest incidence of TEAEs in any treatment arm were infections and infestations, psychiatric disorders, and gastrointestinal disorders. Common TEAEs were AEs that had been previously reported in other studies or within the Investigator's Brochure. All TEAEs were mild or moderate in severity on the commercial schedule and all events except 2 were mild or moderate on the TID schedule: One experienced a severe head injury, and another subject experienced a severe case of influenza. Neither event was considered related to the study drug.

[2] = test system: neuronal alpha4, beta2 (α4β2) receptors; details: cited from earlier work
adult smokers [3] = assay: ORCA-2: Effect Modifier Analyses of continuous abstinence; details: both treatment durations
From the text: Analyses for the binary primary and secondary outcomes were based on exact analyses 2×2 tables stratified by clinical site. Missed assessments of primary and secondary endpoints were imputed as non-success, thereby enabling analyses following the intent-to-treat principle. The Hochberg procedure was used to control for multiplicity (6). A target sample of 750 participants (n=250 per arm) was computed and verified using simulations to provide 96% power for specifications of an overall one-sided 0.025 type I error probability and success probabilities of 7% for placebo and 19% for cytisinicline. Sensitivity analyses included assessments of effect modification related to subsets defined by baseline attributes using logistic and cumulative logit models. Longitudinal analyses used Mixed Model for Repeated Measures methodology (7). Safety analyses included all randomized participants who received at least one dose of study drug. Analyses were conducted by BB.
FIGS. 36 and 37 compare the effectiveness of cytisinicline vs. placebo for the two primary outcomes in subgroups defined by baseline characteristics. […] These EMAs are exploratory and there is no adjustment for multiplicity.

adult smokers [4] = assay: ORCA-1: CO-confirmed quit rate at Week 4 and continuous abstinence Weeks 5-8; details: for Quit Rate / abstinence, End-of-Treatment Week 4 / Quit Rate, Continuous Abstinence Weeks 5 to 8 (4 weeks off treatment): 3.0 mg TID
Procedure: as §1
The secondary efficacy endpoint was the quit rate (confirmed by CO<10 ppm) and included an analysis at week 4 (i.e., the end of treatment) and sustained (4-week) abstinence from Week 5 to Week 8 (i.e., off treatment).
The primary outcome (Cigarette Score) and the main secondary abstinence outcomes were subjected to sensitivity analyses. The main secondary abstinence outcomes were the initial quit rate at Week 4 and continued 4-week abstinence through Week 5 to Week 8, confirmed by expired carbon monoxide (CO) of <10 ppm designated as Cess/W5-8/CO Success. The objective was to assess the robustness of the findings from the trial, and to perform alternative analyses that might either confirm the observed results or challenge the conclusions of the trial.

[5] = 1.5 mg downward titration (n = 51)
[6] = 3.0 mg downward titration (n = 50)

O=c1cccc2n1C[C@@H]1CNC[C@H]2C1
Abnormal dreams ([1]; 1.5 mg TID (n = 52)): 4 (8%) n (%)
At least 1 AE ([1]; 1.5 mg TID (n = 52)): 20 (39%) n (%)
Constipation ([1]; 1.5 mg TID (n = 52)): 1 (2%) n (%)
Fatigue ([1]; 1.5 mg TID (n = 52)): 3 (6%) n (%)
Headache ([1]; 1.5 mg TID (n = 52)): 6 (12%) n (%)
Insomnia ([1]; 1.5 mg TID (n = 52)): 4 (8%) n (%)
Nausea ([1]; 1.5 mg TID (n = 52)): 1 (2%) n (%)
URTI ([1]; 1.5 mg TID (n = 52)): 5 (10%) n (%)
Abnormal dreams [1, 5]: 4 (8%) n (%)
At least 1 AE [1, 5]: 29 (57%) n (%)
Fatigue [1, 5]: 1 (2%) n (%)
Headache [1, 5]: 1 (2%) n (%)
Insomnia [1, 5]: 3 (6%) n (%)
Nausea [1, 5]: 5 (10%) n (%)
URTI [1, 5]: 3 (6%) n (%)
overall safety ([1]; 1.5 mg or 3.0 mg, both schedules): no safety concerns
Abnormal dreams ([1]; 3.0 mg TID (n = 50)): 3 (6%) n (%)
At least 1 AE ([1]; 3.0 mg TID (n = 50)): 21 (42%) n (%)
Constipation ([1]; 3.0 mg TID (n = 50)): 3 (6%) n (%)
Fatigue ([1]; 3.0 mg TID (n = 50)): 1 (2%) n (%)
Headache ([1]; 3.0 mg TID (n = 50)): 2 (4%) n (%)
Insomnia ([1]; 3.0 mg TID (n = 50)): 3 (6%) n (%)
Nausea ([1]; 3.0 mg TID (n = 50)): 3 (6%) n (%)
URTI ([1]; 3.0 mg TID (n = 50)): 3 (6%) n (%)
Abnormal dreams [1, 6]: 7 (14%) n (%)
At least 1 AE [1, 6]: 23 (46%) n (%)
Fatigue [1, 6]: 2 (4%) n (%)
Headache [1, 6]: 1 (2%) n (%)
Insomnia [1, 6]: 4 (8%) n (%)
Nausea [1, 6]: 3 (6%) n (%)
URTI [1, 6]: 2 (4%) n (%)
Abnormal dreams ([1]; pooled cytisinicline (n = 203)): 18 (9%) n (%)
At least 1 AE ([1]; pooled cytisinicline (n = 203)): 93 (46%) n (%)
Constipation ([1]; pooled cytisinicline (n = 203)): 4 (2%) n (%)
Fatigue ([1]; pooled cytisinicline (n = 203)): 7 (3%) n (%)
Headache ([1]; pooled cytisinicline (n = 203)): 10 (5%) n (%)
Insomnia ([1]; pooled cytisinicline (n = 203)): 14 (7%) n (%)
Nausea ([1]; pooled cytisinicline (n = 203)): 12 (6%) n (%)
URTI ([1]; pooled cytisinicline (n = 203)): 13 (6%) n (%)
binding to neuronal α4β2 receptors [2]: bind strongly and preferentially
effectiveness in non-White participants (adult smokers [3]): less effective in non-White participants
OR, abstinence Weeks 5 to 8 (adult smokers [4]; 1.5 mg COM vs placebo): 3.23 (95% CI: 0.86, 14.85)
OR, quit rate at Week 4 (adult smokers [4]; 1.5 mg COM vs placebo): 5.59 (95% CI: 2.03, 16.29)
OR, abstinence Weeks 5 to 8 (adult smokers [4]; 1.5 mg TID vs placebo): 4.33 (95% CI: 1.21, 19.30)
OR, quit rate at Week 4 (adult smokers [4]; 1.5 mg TID vs placebo): 5.81 (95% CI: 2.12, 16.87)
OR, abstinence Weeks 5 to 8 (adult smokers [4]; 3.0 mg COM vs placebo): 2.24 (95% CI: 0.55, 10.82)
OR, quit rate at Week 4 (adult smokers [4]; 3.0 mg COM vs placebo): 5.38 (95% CI: 1.95, 15.72)
Quit Rate / abstinence, End-of-Treatment Week 4 (adult smokers [4]; listed as CYT): 54%
Quit Rate, Continuous Abstinence Weeks 5 to 8 (4 weeks off treatment) (adult smokers [4]; listed as CYT): 30%
Quit Rate / abstinence, End-of-Treatment Week 4 (adult smokers [4]; listed as Cytisinicline): 54%
Quit Rate, Continuous Abstinence Weeks 5 to 8 (4 weeks off treatment) (adult smokers [4]; listed as Cytisinicline): 30%
Quit Rate / abstinence, End-of-Treatment Week 4 (adult smokers [4]; listed as cytisine): 54%
Quit Rate, Continuous Abstinence Weeks 5 to 8 (4 weeks off treatment) (adult smokers [4]; listed as cytisine): 30%
Drug-placebo difference, quit rate (adult smokers [4]; 4 weeks off treatment): 22.2%
OR, quit rate (adult smokers [4]; 4 weeks off treatment vs placebo, 95% CI 1.54 to 16.50): 5.0
odds ratios vs NRT, Zyban and Chantix (adult smokers [4]; 4 weeks, end of treatment, 4 weeks off treatment): consistently better than that of NRT, Zyban®, and Chantix®
odds ratios vs Chantix (adult smokers [4]; 4 weeks, end of treatment, 4 weeks off treatment, 95% CIs overlap): consistently better than that of Chantix®
odds of smoking abstinence at Weeks 6, 7 and 8 (adult smokers [4]; TID schedule compared with COM schedule, versus placebo): higher odds of smoking abstinence
Drug-placebo difference, quit rate (adult smokers [4]; end of treatment / 4 weeks treatment): 38.3%
OR, quit rate (adult smokers [4]; end of treatment / 4 weeks treatment vs placebo, 95% CI 2.47 to 16.11): 6.3
continuous abstinence vs commercial 25-day 1.5 mg titration schedule (adult smokers [4]; methods disclosed (TID dosing), FIG. 7): surprisingly higher
